Key:
Homo sapiens [1] = species: Homo sapiens; assay: Selectivity ratio of IC50 for PI3Kbeta (unknown origin) to IC50 for GST-tagged PI3Kdelta (unknown origin)
Homo sapiens [2] = species: Homo sapiens; assay: Selectivity ratio of IC50 for PI3Kalpha (unknown origin) to IC50 for GST-tagged PI3Kdelta (unknown origin)

What does the source list for `C[C@H](Nc1ncnc2[nH]cnc12)c1nc2ccc(F)cc2c(=O)n1-c1ccccc1` [ACALISIB]?
Ratio IC50 (Homo sapiens [1]): 63; Ratio IC50 (Homo sapiens [2]): > 1000
